# Values of other authors, collected in article PMC7262448, “Disconnect between signalling potency and in vivo efficacy of pharmacokinetically optimised biased glucagon-like peptide-1 receptor agonists” (Molecular Metabolism, 2020).
# Test system: human plasma proteins
# Conditions: EScalate
substance,measurement,value
liraglutide,Unbound fraction in human plasma,0.51%
